Reference: patent publication US9339529B2, “Glucose-responsive microgels for closed loop insulin delivery” (Massachusetts Institute of Technology, priority 2012, dated 2016)

Tests used:
[1] = Thermal stability of native GOx and GOx nanocapsules at 60° C. (Amplex Red Glucose/Glucose Oxidase Assay Kit); format: physicochemical; settings: after 4 hours
Procedure: (§1) FIG. 4A is a graph showing enzyme stability (% residual activity) of native GOx (bottom curve) and GOx nanogels (top curve) as a function of time (minutes) at 60° C. in PBS buffer. FIG. 4B is a graph comparing catalytic activity of native enzymes (mixture of GOx and CAT, 0.15 mg/mL, weight ratio of GOx to CAT:4:1) and enzyme nanocapsules incubated with a 400 mg/dL glucose saline solution after incubation with proteinase K (1 mg/mL) at 37° C. for 24 hours. FIG. 4C is a graph showing remained enzymatic activity of native GOx and GOx nanocapsules in microgels (without CAT or CAT nanocapsules) incubated with a 400 mg/dL glucose saline solution, quantified over time by the Amplex® Red Glucose/Glucose Oxidase Assay Kit.
(§2) The enzymatic activity of native GOx and GOx nanocapsules was tested by the Amplex® Red Glucose/Glucose Oxidase Assay Kit (Invitrogen). Thermal stability of the native and the GOx nanocapsules was compared by incubating at 60° C. After 4 hours, the enzyme nanocapsule retained 70% of its original activity, whereas the native GOx retained only 20% of its original activity, as shown in FIG. 4A. The enhanced thermal stability of the enzyme nanocapsules is likely due to covalent attachment to the protective polymer. […]

[2] = Remaining enzyme activity of GOx after encapsulation in microgels incubated with 400 mg/dL glucose saline solution; format: physicochemical; settings: after 3 hours
Procedure: as §1, §2

With glucose oxidase [native GOx] the “retained original enzymatic activity” value [1] was 20% and the “retained enzyme activity after encapsulation in microgels” value [2] was “about 60%”.
